From patent publication US20020019395A1, “Indalone and benzimidazolone inhibitors of factor Xa” (priority 2000, published 2002)

Protein sequences, listed by entry. Tags and fused reporters are not part of them. Residues count along the entry.
UniProt P00742, 235-488 limits assumed: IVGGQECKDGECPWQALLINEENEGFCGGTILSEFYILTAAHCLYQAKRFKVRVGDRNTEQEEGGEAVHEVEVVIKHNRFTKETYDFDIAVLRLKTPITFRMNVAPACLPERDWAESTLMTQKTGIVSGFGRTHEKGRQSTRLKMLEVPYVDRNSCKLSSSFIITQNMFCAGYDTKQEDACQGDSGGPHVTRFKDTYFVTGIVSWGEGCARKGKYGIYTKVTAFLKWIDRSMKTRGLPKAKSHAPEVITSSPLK
UniProt P00742, 41-179 partner limits assumed: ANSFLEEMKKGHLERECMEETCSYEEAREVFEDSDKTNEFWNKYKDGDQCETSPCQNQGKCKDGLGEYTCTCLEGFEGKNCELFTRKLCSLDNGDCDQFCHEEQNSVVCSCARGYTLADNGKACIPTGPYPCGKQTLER
UniProt P00760, 24-246 limits assumed: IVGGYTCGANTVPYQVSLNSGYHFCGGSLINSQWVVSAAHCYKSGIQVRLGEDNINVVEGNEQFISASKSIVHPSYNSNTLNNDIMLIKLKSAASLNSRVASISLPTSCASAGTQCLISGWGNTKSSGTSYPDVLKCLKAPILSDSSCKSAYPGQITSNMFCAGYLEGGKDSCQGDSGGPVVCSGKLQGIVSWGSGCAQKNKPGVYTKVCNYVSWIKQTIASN
UniProt P00750, 36-562 limits assumed: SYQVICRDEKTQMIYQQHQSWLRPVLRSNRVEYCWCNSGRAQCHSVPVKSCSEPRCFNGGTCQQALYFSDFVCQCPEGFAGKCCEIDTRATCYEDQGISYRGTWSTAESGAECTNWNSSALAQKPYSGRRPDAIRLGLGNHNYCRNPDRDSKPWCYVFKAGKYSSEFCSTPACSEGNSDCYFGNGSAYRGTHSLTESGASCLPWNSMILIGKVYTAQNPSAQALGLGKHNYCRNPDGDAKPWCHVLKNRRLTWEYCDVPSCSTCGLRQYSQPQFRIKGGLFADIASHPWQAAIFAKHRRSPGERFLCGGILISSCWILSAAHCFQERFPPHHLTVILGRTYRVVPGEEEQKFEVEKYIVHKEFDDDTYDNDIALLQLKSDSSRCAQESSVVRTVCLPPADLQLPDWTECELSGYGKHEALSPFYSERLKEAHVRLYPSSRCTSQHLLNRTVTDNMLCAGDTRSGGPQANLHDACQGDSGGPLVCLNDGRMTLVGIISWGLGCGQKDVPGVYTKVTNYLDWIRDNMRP
UniProt P04070, 212-450 limits assumed: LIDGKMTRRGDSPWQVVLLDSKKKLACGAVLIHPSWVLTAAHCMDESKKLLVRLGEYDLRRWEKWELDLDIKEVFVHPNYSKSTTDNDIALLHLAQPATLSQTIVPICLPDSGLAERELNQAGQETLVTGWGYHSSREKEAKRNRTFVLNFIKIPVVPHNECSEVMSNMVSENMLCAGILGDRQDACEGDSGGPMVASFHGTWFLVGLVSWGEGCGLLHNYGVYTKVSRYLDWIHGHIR
UniProt P04070, 43-197 partner limits assumed: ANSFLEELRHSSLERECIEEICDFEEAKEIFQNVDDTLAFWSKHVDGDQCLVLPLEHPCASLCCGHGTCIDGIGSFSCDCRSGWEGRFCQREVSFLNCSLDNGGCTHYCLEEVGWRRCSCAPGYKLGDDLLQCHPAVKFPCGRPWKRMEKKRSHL
UniProt P00747, 581-810 limits assumed: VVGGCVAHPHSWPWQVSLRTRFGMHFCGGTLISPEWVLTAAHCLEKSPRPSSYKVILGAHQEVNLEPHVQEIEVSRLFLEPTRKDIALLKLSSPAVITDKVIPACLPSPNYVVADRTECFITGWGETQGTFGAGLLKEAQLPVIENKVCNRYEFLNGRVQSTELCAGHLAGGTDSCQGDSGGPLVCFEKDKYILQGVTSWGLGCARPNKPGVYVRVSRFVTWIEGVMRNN
UniProt P00747, 97-580 partner limits assumed: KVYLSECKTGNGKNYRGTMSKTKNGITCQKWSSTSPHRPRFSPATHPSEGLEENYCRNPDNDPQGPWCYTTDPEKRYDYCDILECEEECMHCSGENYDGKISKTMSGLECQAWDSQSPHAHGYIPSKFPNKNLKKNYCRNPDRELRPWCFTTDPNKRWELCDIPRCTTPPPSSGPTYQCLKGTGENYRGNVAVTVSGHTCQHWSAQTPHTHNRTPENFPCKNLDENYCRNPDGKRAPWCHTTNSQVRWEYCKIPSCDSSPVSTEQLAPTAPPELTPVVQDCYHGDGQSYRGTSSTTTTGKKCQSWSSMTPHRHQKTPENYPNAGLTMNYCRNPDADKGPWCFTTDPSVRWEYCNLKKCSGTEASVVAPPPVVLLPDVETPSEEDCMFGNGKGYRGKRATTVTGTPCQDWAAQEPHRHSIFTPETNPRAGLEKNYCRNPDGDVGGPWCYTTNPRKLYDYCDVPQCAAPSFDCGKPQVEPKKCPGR
UniProt P12259, 29-737 partner limits assumed: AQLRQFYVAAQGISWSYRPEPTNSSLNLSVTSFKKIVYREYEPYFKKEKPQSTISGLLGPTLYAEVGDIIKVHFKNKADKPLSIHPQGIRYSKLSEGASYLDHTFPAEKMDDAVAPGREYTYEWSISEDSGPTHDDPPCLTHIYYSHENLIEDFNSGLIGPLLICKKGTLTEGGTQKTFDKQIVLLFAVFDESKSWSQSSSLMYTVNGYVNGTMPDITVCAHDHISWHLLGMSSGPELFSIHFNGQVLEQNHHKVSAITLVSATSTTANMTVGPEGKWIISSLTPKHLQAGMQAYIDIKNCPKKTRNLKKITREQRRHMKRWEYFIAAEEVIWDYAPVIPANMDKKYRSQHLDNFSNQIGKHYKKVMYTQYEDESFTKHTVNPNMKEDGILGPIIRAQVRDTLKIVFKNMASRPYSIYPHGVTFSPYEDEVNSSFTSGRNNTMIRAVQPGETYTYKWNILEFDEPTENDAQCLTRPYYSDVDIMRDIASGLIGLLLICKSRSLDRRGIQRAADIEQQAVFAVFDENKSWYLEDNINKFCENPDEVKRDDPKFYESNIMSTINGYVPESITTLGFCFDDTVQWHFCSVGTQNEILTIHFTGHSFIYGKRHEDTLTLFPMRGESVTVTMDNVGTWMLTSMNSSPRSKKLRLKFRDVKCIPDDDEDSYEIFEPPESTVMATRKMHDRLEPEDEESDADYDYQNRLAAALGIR
UniProt P12259, 1574-2224 partner limits assumed: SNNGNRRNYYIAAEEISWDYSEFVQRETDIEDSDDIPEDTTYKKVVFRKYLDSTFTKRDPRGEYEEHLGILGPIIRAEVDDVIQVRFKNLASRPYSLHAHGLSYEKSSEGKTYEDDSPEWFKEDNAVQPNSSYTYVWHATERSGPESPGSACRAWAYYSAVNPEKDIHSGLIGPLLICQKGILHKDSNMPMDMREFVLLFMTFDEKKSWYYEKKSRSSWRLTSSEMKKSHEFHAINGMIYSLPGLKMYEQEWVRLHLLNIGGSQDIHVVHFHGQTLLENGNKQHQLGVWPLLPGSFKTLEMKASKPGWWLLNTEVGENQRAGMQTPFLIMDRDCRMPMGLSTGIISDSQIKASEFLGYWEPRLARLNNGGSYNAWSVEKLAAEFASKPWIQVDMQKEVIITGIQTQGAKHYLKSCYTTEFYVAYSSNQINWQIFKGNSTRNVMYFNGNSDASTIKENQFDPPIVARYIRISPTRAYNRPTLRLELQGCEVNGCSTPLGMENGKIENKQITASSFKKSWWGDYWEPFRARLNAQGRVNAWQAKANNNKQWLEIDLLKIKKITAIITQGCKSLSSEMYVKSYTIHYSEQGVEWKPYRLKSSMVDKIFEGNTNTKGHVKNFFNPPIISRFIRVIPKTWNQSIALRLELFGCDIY

Experiments:
factor Xa = factor Xa (Homo sapiens, UniProt P00742); experiment: factor Xa amidolytic assay (XA); conditions: read-out: XA IC50; substrate S-2765, pH 7.5, room temperature
Experimental: (§1) The compounds of the present invention are dissolved in buffer to give solutions containing concentrations such that assay concentrations range from about 0 to about 100 μM. In the assays for thrombin, prothrombinase and factor Xa, a synthetic chromogenic substrate is added to a solution containing test compound and the enzyme of interest and the residual catalytic activity of that enzyme is determined spectrophotometrically. The IC50 of a compound is determined from the substrate turnover. The IC50 is the concentration of test compound giving about 50% inhibition of the substrate turnover.
(§2) The factor Xa and thrombin assays were performed at room temperature, in 0.02 M Tris.HCl buffer, pH 7.5, containing 0.15 M NaCl. The rates of hydrolysis of the para-nitroanilide substrate S-2765 (Chromogenix) for factor Xa, and the substrate Chromozym TH (Boehringer Mannheim) for thrombin following preincubation of the enzyme with inhibitor for 5 minutes at room temperature, and were determined using the Softmax 96-well plate reader (Molecular Devices), monitored at 405 nm to measure the time dependent appearance of p-nitroaniline.

thrombin = thrombin (Homo sapiens, UniProt P00734); experiment: thrombin amidolytic assay (IIA); conditions: read-out: IIA IC50; substrate Chromozym TH, pH 7.5, room temperature
Experimental: as §1, §2

TRYPSIN = TRYPSIN (Bos taurus, UniProt P00760); experiment: trypsin protease inhibition assay; assay type: biochemical; conditions: read-out: TRYPSIN IC50
prothrombinase complex = prothrombinase complex (Homo sapiens, UniProt P00742); experiment: prothrombinase inhibition assay (IIASE), plasma free system; conditions: read-out: IIASE IC50; factor Xa 0.5 nM, factor Va 2 nM, phospholipid, Chromozym TH
Experimental: as §1
The prothrombinase inhibition assay was performed in a plasma free system with modifications to the method described by Sinha, U. et al., Thromb. Res., 75, 427-436 (1994). Specifically, the activity of the prothrombinase complex was determined by measuring the time course of thrombin generation using the p-nitroanilide substrate Chromozym TH. The assay consists of preincubation (5 minutes) of selected compounds to be tested as inhibitors with the complex formed from factor Xa (0.5 nM), factor Va (2 nM), phosphatidyl serine:phosphatidyl choline (25:75, 20 μM) in 20 mM Tris.HCl buffer, pH 7.5, containing 0.15 M NaCl, 5 mM CaCl2 and 0.1% bovine serum albumin. […] The rate of substrate cleavage was monitored at 405 nm for two minutes. […]

TPA = TPA (Homo sapiens, UniProt P00750); experiment: TPA protease inhibition assay; assay type: biochemical; conditions: read-out: TPA IC50
APC = APC (Homo sapiens, UniProt P04070); experiment: APC protease inhibition assay; assay type: biochemical; conditions: read-out: APC IC50
PLASMIN = PLASMIN (Homo sapiens, UniProt P00747); experiment: plasmin protease inhibition assay; assay type: biochemical; conditions: read-out: PLASMIN IC50
KALLIKREIN = experiment: kallikrein protease inhibition assay; assay type: biochemical; conditions: read-out: KALLIKREIN IC50

Compound | IC50 (factor Xa) [µM] | IC50 (thrombin) [µM] | IC50 (TRYPSIN) [µM] | IC50 (prothrombinase complex) [µM] | IC50 (TPA) [µM] | IC50 (APC) [µM] | IC50 (PLASMIN) [µM] | IC50 (KALLIKREIN) [µM]
CCn1c(Cn2c(=O)[nH]c3ccc(OC4CCN(C(C)=N)CC4)cc32)cc2ccc(C(N)=NO)cc21 | 0.107 | 359 | 3.45 |  |  |  |  | 
CCn1c(Cn2c(=O)[nH]c3ccc(OC4CCN(C(C)=N)CC4)cc32)cc2ccc(C(=N)N)cc21 [Example 17] | 0.00357 | 12 | 0.056 | 0.00249 | 3.25 | 1.09 | 0.475 | 0.241
CCn1c(Cn2c(=O)[nH]c3ccc(OC4CCN(C(=N)N)CC4)cc32)cc2ccc(C(=N)N)cc21 [Example 18] | 0.00383 | 1.5 | 0.0637 | 0.00313 | 1.64 | 0.794 | 0.246 | 0.135
